Values of other authors, collected in publication PMC2359721 (British Journal of Cancer, 2007).

System: A431, NIH-3T3-HER2, NCI-N87 and BT-474
Conditions: cell lines such as A431, NIH-3T3-HER2, NCI-N87, BT-474; ref Boehringer-Ingelheim, data on file; cited from earlier work

Question: Which cellular proliferation does the source give for `CN(C)C/C=C/C(=O)Nc1cc2c(Nc3ccc(F)c(Cl)c3)ncnc2cc1O[C@H]1CCOC1` [BIBW 2992] here?
Answer: inhibits
